# Patent US20250034201A1, “PRODRUGS OF GANAXOLONE” (priority 2022, published 2025)
# Type: in vitro ADME
# Method: For several compounds only human liver microsomal stability was tested. […] The microsomal assays were carried out with and without the addition of NADPH at a final concentration of 1 mM. For negative control samples, NADPH reagent was not added. […] Note that compounds undergo only Phase I metabolism in liver microsomes.
smiles,measurement,value
CC(=O)[C@H]1CC[C@H]2[C@@H]3CC[C@H]4C[C@](C)(CC(=O)COC(=O)NCCN(C)C)CC[C@]4(C)[C@H]3CC[C@]12C [Compound 217],Comments: production of GNX (ganaxolone) in human liver microsomes,In human small amount of GNX produced
